This note sets out measurements from patent US12104201B2, “Engineered gyri-like mutein aptamers, and related methods” (CROSSLIFE TECHNOLOGIES INC., priority 2019, dated 2024).

Sequences of proteins named here, by UniProt entry; tags and fusion partners are left off.
UniProt Q8KFZ1, entry or part of it E36R/H40Y/Y106W: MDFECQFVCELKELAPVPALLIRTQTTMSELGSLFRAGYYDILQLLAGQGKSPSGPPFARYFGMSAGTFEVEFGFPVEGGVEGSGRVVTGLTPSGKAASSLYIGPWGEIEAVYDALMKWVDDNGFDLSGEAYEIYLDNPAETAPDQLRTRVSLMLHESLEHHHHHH
UniProt Q929T5, entry or part of it E157A/E185L: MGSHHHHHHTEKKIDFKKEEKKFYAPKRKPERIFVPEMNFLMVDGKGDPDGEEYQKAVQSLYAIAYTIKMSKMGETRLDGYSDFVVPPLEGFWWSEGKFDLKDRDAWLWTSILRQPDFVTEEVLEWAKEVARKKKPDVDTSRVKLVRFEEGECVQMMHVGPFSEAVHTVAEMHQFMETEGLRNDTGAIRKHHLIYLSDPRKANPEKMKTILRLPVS
UniProt Q929T5, entry or part of it E185L: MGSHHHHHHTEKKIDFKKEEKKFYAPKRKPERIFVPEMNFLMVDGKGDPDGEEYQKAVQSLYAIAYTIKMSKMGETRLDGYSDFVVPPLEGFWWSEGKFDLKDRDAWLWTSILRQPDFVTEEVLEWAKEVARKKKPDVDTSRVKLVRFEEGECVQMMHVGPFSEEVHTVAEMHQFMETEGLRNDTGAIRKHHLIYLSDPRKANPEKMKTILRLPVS

Assay [1] addresses C. tepidium CTR107 variant TRIP (E36R, H40Y, Y106W; SEQ ID NO:24) (Chlorobaculum tepidum, UniProt Q8KFZ1, E36R/H40Y/Y106W). Format: binding. To be noted: FAM.
Assay [2] addresses L. innocua LIN2189 variant DUB (E157A, E185L; SEQ ID NO:32) (Listeria innocua, UniProt Q929T5, E157A/E185L). The format is binding. To be noted: FAM.
Assay [3] concerns the target L. innocua LIN2189 variant E185L (SEQ ID NO:30) (Listeria innocua, UniProt Q929T5, E185L). The format is binding. The settings on record: FAM.
The test system of assay [4] is bacterial growth; ampicillin pre-incubated with SAV2435. The assay can be described thus: Ex vivo drug-metabolizing aptamer screening (bacterial growth in ampicillin pre-incubated with protein). To be noted: 5 μg/ml or 500 μg/ml ampicillin.
Assay [5] deals with bacterial growth; ampicillin pre-incubated with CTR107. Described as above. To be noted: 5 μg/ml or 500 μg/ml ampicillin.

As for 5(6)-Carboxyfluorescein [FAM], in assay [1], the fluorescence quenching entry is “loss of quenching properties”. The same compound registered a decrease in fluorescence in assay [2] of around 40 fold. Also, in assay [3], the “changes in fluorescence quenching compared to LIN2189 WT” value is “no changes”.

For the compound `CC1(C)S[C@@H]2[C@H](NC(=O)[C@H](N)c3ccccc3)C(=O)N2[C@H]1C(=O)O` [Ampicillin], the growth inhibition entry in assay [4] and in assay [5] was “substantially inhibited growth” each time.
